Structures are written as SMILES.

Protein sequences, listed by entry. Tags and fused reporters are not part of them. Lines headed by an entry give the natural chain unless they say otherwise; changes in a name come on top.
UniProt Q16696: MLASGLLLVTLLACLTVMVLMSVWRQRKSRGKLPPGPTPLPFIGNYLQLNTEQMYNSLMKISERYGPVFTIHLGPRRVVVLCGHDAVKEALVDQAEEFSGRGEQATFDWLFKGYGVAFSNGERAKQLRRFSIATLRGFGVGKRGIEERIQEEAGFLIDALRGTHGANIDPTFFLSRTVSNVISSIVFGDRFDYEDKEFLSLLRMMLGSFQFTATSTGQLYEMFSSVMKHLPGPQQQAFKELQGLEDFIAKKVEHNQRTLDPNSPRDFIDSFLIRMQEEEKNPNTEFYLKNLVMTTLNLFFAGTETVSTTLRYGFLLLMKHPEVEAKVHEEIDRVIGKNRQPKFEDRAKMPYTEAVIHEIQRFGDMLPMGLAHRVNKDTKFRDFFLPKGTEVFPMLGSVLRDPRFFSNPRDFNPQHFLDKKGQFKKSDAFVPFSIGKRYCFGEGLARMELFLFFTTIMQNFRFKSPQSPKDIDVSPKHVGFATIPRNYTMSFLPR
UniProt P11509: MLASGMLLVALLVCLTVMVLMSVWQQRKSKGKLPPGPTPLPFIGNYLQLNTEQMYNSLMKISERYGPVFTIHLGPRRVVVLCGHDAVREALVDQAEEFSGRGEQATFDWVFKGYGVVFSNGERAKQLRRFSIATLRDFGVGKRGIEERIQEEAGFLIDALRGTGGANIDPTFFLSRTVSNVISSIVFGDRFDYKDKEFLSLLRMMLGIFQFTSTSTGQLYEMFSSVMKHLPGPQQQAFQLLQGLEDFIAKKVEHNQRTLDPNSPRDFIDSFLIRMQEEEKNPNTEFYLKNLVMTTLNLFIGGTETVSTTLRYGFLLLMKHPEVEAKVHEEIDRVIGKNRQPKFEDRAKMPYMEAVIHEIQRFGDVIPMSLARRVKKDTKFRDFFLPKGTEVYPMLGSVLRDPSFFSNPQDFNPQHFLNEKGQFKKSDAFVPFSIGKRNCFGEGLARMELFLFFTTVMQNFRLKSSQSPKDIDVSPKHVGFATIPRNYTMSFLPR
UniProt P20813: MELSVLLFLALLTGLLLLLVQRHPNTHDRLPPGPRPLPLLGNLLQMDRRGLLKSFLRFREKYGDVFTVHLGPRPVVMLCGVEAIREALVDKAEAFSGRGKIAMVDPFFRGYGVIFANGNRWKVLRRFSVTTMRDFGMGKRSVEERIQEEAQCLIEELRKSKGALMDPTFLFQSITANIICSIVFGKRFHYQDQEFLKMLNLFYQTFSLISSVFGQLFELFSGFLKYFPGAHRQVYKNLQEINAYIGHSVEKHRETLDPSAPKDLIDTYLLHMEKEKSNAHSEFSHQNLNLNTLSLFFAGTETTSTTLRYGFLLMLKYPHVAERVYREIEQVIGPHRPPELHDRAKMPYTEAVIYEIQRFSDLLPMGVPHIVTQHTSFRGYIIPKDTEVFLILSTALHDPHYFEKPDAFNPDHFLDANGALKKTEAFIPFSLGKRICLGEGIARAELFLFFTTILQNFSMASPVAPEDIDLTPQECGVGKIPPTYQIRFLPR
UniProt P08684, whole entry: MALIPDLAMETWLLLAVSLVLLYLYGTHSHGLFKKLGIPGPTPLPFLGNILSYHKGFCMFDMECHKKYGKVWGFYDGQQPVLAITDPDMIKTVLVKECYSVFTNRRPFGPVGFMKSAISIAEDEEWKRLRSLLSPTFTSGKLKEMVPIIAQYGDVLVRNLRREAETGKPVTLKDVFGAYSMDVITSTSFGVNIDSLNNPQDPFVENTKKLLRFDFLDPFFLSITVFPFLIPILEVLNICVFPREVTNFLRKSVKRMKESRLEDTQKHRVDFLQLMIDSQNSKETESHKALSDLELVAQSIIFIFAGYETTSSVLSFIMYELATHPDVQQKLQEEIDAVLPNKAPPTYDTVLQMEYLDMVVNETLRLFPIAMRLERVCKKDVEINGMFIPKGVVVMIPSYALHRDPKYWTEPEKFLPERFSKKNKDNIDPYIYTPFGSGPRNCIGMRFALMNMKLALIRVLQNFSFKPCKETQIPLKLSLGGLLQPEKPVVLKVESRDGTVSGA

Broadly, the inhibition is the drop in the measured response relative to a control, in per cent. Read a low inhibition as little suppression. For orientation: Ki means the equilibrium dissociation constant of an inhibitor or competing ligand from its target. Read a low Ki as a stronger hold on the target. In general, IC50 refers to the point on the concentration scale where inhibition reaches its midpoint.

One series concerns the target CYP2A13 (Homo sapiens (Human), UniProt Q16696). Kind of series: in vitro.
A further series concerns the target human CYP2A6 (Homo sapiens (Human), UniProt P11509).
A further series addresses CYP2B6 (Homo sapiens (Human), UniProt P20813). Kind of series: CYP2B6 Vivid blue substrate O-dealkylation inhibition. The following applies: insect cell microsomes expressing CYP2B6, 0.2M potassium phosphate buffer; mean of at least 3 determinations ± SD; read-out: IC50 ± SD 2B6. The series is classed as biochemical.
The target of the next series is CYP3A4 (Homo sapiens (Human), UniProt P08684). The following applies: microsomes, pH 7.5. As to the method: To gain insight into the selectivity of the synthetic compounds, nicotine, nicotine related alkaloids and nicotine metabolites for inhibition of other CYPs, we examined the major CYP present in human liver (i.e., CYP 3A4). […] A typical incubation mixture ([…] ), 0.5 mM NADP^+, 2.0 mM G6P, 1 U of G6P dehydrogenase, […] inhibitor was added last as to minimize interaction with the protein. After mixing on ice, the reaction was initiated by the addition of substrate and incubated at 37° C. with shaking in air. Organic extracts were injected onto a Hitachi L-7100 system equipped with a Hitachi L-7400 UV detector. Separations were done with an Altex Ultrasphere ODS (4.6 mm×250 mm, 5 μm) column. The analytes were eluted with an isocratic solvent system consisting of water/acetonitrile/methanol (30:10:60, v/v/v) at a flow rate of 1.0 mL/min. […] Quantification of substrate and metabolite was determined from peak areas of the chromatogram and comparison with standard curves. IC50 values were determined as described below.
To measure CYP3A4 activity, testosterone 6-hydroxylation was determined.

Take `Cc1ccsc1-c1ccc(F)nc1` [TD-II-077]: at CYP2A13, the inhibition at 1 µM came to 30%.
As for `c1cncc(-c2c[nH]cn2)c1` [TD-I-125], the inhibition at 1 µM against CYP2A13 was 7%.
On human CYP2A6, `OCc1ccc(-c2cccnc2)o1` [Compound 45, (5-(Pyridin-3-yl)furan-2-yl)methanol] came in with a Ki of 35.2 ± 16.7 µM.
As to `c1cncc(-c2cccnc2)c1` [Compound 31, 3-(Pyridin-3-yl)pyridine], at CYP2B6, the 50% inhibitory concentration (IC50) amounted to 145 ± 11 µM.
`Cc1cscc1-c1ccc(F)nc1` [Compound 21, 2-Fluoro-5-(4-methylthiophen-3-yl)pyridine]: on CYP3A4, the half-inhibitory concentration (IC50) was determined as 39.1 ± 12.8 µM.
The compound `Cc1cscc1-c1cccnc1` [TD-I-103] had an inhibition at 1 µM against CYP2A13 of 0%.
On to `CN(C)Cc1ccc(-c2cccnc2)o1` [Compound 43, N,N-Dimethyl(5-(pyridin-3-yl)furan-2-yl)methanamine], for which affinity on human CYP2A6 was put at a Ki of 47.2 ± 3.1 µM.

The values are drawn from patent publication US8609708B2 (Human BioMolecular Research Institute, priority 2003, dated 2013).
